Results: PMC11452492 (Nature Communications, 2024)

Sequences of proteins named here, by UniProt entry; tags and fusion partners are left off. Residues count along the entry.
UniProt P45983, 1-384 isoform P45983-3 C116S: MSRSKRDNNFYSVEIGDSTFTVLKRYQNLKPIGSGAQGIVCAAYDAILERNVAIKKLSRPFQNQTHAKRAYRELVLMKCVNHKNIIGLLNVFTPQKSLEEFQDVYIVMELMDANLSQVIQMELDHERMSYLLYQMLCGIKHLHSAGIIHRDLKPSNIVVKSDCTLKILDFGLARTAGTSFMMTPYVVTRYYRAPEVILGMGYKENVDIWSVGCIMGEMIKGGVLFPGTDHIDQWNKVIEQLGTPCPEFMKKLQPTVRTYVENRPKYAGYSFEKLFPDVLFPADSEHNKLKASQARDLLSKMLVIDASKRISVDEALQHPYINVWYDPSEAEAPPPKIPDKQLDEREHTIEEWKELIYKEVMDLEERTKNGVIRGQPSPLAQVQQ
UniProt P45983, 1-384 isoform P45983-3: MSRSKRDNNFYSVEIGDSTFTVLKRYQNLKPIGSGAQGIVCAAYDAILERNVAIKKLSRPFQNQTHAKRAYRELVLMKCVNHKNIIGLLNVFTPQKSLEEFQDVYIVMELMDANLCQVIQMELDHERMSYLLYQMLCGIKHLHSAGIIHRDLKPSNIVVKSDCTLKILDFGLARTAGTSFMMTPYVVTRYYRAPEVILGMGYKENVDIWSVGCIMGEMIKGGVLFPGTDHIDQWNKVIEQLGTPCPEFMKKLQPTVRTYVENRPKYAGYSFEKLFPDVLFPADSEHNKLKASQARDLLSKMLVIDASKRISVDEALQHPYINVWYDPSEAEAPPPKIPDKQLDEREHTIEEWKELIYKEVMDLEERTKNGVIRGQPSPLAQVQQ

What was measured:
JNK1 C116S mutant = JNK1 C116S mutant (Homo sapiens, UniProt P45983, C116S); assay: biochemical; type: binding
JNK1 = JNK1 (Homo sapiens, UniProt P45983); assay: in vitro JNK1 PhALC kinase assay; type: biochemical

`Cc1cc(NC(=O)c2cccc(NC(=O)/C=C/CN(C)C)c2)ccc1Nc1nccc(-c2cccnc2)n1` [JNK-IN-8] was tested, and the Kd (JNK1 C116S mutant) was 200 to 300 nM and the IC50 (JNK1) was 44 ± 6 nM.
